Source: publication PMC10601436 (ACS Omega, 2023)

Chains of the proteins cited; added tags and fusions are not shown.
UniProt P27487, whole entry: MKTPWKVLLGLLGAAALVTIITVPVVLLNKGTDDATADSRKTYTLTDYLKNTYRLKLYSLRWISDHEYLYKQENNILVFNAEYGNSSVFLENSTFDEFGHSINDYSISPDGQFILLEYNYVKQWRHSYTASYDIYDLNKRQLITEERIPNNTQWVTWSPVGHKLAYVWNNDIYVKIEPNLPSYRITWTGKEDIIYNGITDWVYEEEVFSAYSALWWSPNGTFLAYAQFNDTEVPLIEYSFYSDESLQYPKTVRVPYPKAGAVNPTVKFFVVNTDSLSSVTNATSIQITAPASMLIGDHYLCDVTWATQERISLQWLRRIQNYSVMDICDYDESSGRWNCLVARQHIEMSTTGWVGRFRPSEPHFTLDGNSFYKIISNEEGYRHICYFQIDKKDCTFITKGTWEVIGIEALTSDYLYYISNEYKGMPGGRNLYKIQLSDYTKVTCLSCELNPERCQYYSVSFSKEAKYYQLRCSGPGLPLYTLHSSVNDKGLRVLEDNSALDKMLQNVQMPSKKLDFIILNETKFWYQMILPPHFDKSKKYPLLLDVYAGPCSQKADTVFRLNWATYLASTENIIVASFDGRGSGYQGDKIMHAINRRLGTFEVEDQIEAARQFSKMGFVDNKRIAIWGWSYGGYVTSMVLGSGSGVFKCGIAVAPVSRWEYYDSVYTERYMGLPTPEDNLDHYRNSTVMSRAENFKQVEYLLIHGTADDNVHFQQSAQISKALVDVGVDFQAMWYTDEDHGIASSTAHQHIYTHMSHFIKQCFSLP

Target: hDPP-IV (Homo sapiens, UniProt P27487)
Test: DPP-IV inhibitory assay
Type: biochemical

Q: With `CC(C)[C@H](NC(=O)[C@@H](N)Cc1c[nH]c2ccccc12)C(=O)N[C@@H](CCC(N)=O)C(=O)O` [WVQ] as the compound, how does the IC50 read?
A: 366 µM
